Legend:
[1] = molecular target: IKZF2 (Homo sapiens, UniProt Q96SW2+Q9UKS7); assay: Western blot assay of substrate protein degradation in hPBMCs; details: 24 hours treatment, compounds at 50 nM and 500 nM (concentration behind the class not stated)
[2] = molecular target: GSPT1 (Homo sapiens, UniProt P15170+Q96SW2); assay: as above; details: 24 hours treatment, compounds at 50 nM and 500 nM (concentration behind the class not stated)
[3] = molecular target: IKZF3 (Homo sapiens, UniProt Q96SW2+Q9UKT9); assay: as above; details: 24 hours treatment, compounds at 50 nM and 500 nM (concentration behind the class not stated)
[4] = molecular target: IKZF1 (Homo sapiens, UniProt Q13422+Q96SW2); assay: as above; details: 24 hours treatment, compounds at 50 nM and 500 nM (concentration behind the class not stated)
[5] = molecular target: WEE1 (Homo sapiens, UniProt P30291+Q96SW2); assay: as above; details: 24 hours treatment, compounds at 50 nM and 500 nM (concentration behind the class not stated)
[6] = molecular target: CK1α (Homo sapiens, UniProt P48729+Q96SW2); assay: as above; details: 24 hours treatment, compounds at 50 nM and 500 nM (concentration behind the class not stated)
[7] = molecular target: CRBN (Homo sapiens, UniProt Q96SW2); assay: CRBN binding affinity by HTRF (CEREBLON BINDING kit); details: CRBN binding, HTRF; for Inhibition Rate at 0.5 µM (%): compound at 0.5 µM; for Inhibition Rate at 2 µM (%): compound at 2 µM

The chains behind the UniProt entries cited, without tags or fusion partners.
UniProt Q96SW2, whole entry: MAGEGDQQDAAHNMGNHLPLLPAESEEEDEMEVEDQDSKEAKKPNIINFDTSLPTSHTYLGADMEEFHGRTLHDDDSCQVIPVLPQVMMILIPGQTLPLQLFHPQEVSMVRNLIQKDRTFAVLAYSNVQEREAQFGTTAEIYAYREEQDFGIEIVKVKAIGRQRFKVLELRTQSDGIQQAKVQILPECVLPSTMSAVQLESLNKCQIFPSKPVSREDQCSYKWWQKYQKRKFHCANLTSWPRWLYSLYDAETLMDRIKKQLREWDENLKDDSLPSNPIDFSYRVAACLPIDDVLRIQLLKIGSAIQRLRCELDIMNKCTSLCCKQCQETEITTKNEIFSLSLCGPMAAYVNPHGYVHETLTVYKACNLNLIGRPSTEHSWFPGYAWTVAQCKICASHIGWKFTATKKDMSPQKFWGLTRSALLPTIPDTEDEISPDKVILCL
UniProt Q9UKS7, whole entry: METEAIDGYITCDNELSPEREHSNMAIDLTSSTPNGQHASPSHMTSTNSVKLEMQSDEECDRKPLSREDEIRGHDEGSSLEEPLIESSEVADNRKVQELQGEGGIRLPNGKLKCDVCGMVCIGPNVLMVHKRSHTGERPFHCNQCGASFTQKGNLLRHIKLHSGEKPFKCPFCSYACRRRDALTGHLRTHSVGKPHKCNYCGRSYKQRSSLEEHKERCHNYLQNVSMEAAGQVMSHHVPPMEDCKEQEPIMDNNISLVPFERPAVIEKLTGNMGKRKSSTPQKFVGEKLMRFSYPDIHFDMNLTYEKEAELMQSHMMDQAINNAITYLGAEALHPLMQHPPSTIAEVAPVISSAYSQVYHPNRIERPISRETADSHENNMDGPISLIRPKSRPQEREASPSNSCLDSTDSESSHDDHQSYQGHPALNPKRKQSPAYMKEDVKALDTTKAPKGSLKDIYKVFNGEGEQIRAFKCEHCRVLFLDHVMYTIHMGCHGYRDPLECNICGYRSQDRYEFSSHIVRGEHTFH
UniProt P15170, whole entry: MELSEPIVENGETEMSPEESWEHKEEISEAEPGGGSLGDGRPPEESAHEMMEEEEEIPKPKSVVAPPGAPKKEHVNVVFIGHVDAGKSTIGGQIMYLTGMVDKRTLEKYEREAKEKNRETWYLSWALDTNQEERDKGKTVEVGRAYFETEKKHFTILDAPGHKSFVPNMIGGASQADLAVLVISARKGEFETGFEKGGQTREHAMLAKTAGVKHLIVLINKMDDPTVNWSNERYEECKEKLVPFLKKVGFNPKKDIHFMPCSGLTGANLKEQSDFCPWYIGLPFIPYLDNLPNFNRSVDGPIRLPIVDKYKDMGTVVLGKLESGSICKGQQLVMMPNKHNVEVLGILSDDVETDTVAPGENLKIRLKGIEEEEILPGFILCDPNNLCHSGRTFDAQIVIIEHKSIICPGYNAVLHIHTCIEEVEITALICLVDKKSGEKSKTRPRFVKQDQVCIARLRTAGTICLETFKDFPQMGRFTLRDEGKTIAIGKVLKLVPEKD
UniProt Q9UKT9, whole entry: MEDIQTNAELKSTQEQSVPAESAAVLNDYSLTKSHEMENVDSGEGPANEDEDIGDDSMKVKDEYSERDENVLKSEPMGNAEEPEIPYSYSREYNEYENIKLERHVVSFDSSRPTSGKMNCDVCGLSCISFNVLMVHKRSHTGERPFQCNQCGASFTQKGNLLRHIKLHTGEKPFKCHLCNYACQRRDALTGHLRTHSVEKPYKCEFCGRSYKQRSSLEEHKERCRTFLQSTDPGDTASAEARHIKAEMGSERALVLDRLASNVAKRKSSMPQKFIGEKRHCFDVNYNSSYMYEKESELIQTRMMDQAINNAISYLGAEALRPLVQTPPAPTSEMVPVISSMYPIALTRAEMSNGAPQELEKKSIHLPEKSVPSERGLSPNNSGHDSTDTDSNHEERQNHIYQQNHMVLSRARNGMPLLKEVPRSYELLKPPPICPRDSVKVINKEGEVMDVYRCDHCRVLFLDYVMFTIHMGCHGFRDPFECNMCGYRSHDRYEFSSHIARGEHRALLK
UniProt Q13422, whole entry: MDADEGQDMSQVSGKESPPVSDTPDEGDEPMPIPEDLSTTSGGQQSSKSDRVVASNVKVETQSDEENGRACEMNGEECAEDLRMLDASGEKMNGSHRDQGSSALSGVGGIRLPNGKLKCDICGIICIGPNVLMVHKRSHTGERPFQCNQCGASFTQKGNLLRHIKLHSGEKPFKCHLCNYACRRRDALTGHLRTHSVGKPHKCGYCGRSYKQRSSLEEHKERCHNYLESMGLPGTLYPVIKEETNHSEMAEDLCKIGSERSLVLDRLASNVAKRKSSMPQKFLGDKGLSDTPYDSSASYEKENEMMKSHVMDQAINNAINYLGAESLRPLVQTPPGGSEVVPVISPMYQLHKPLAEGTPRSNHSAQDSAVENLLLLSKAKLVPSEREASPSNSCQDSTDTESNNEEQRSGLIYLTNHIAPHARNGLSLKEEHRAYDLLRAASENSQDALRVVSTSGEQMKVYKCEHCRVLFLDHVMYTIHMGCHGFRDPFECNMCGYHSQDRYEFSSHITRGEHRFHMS
UniProt P30291, whole entry: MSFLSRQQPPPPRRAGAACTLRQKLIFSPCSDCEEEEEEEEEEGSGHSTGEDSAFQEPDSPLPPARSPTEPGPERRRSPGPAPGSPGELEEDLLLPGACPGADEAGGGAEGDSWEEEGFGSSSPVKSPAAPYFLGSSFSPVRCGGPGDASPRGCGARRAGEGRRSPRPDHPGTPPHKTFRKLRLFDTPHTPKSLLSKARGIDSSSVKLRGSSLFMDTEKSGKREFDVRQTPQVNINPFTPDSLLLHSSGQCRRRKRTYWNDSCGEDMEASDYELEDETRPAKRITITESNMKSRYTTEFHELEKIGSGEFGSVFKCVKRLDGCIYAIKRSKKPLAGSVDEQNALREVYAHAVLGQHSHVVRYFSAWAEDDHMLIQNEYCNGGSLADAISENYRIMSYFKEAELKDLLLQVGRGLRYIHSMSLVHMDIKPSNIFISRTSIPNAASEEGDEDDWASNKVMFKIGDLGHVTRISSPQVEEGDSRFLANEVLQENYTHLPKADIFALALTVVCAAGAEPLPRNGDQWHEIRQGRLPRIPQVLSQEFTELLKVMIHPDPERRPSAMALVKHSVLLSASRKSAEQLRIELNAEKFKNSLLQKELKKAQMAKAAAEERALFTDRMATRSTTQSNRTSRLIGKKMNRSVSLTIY
UniProt P48729, whole entry: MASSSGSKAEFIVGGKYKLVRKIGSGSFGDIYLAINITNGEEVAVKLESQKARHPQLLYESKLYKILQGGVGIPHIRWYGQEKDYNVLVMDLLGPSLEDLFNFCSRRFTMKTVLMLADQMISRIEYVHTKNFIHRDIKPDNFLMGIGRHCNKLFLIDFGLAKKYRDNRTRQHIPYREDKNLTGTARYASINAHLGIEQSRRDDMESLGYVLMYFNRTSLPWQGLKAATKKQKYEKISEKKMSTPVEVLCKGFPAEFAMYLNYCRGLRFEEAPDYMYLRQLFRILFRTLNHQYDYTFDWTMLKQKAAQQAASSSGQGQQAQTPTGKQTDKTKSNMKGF
UniProt Q16531, whole entry partner: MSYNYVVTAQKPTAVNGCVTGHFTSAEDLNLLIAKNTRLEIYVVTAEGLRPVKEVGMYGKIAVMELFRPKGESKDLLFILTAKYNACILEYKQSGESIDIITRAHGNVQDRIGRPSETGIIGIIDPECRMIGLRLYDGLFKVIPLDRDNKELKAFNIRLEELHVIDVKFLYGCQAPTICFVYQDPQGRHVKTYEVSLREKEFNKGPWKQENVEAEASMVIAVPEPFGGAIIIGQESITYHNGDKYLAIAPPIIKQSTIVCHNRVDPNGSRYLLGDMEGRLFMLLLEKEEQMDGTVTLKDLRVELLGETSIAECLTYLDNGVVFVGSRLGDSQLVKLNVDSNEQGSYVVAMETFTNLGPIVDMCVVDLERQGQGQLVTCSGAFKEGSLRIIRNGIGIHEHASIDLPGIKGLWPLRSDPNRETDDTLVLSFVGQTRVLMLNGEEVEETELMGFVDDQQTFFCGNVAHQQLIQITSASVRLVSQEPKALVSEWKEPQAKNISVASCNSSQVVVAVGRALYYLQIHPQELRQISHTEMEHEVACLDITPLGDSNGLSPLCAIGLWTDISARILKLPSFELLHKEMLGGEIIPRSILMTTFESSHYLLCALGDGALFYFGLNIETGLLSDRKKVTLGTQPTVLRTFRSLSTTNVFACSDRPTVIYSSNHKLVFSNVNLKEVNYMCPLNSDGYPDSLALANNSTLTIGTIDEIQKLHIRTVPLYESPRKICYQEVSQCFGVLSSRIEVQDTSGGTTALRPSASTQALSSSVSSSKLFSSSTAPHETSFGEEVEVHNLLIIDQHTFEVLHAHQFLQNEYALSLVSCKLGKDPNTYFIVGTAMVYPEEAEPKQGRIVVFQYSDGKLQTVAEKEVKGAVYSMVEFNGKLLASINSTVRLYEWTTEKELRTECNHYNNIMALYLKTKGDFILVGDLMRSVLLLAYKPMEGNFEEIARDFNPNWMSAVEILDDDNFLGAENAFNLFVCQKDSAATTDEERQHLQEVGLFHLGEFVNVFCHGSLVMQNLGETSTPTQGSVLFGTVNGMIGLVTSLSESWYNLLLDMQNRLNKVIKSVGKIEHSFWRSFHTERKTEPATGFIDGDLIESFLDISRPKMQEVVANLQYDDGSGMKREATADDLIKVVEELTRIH

Row | Structure (SMILES) | Inhibition Rate at 0.5 µM (%) [7] | Inhibition Rate at 2 µM (%) [7] | substrate protein remaining % (IKZF2) [1] | substrate protein remaining % (GSPT1) [2] | substrate protein remaining % (IKZF3) [3] | substrate protein remaining % (IKZF 1) [4] | substrate protein remaining % (WEE1) [5] | substrate protein remaining % (CK1a) [6]
1 | O=C1CCC(N2Cc3ccc(C(=O)N4CCC(N5CCN(C(c6ccccc6)c6ccccn6)CC5)C(F)(F)C4)cc3C2=O)C(=O)N1 (centres unmarked) | a3 (30% < a3 ≤ 40%) | a6 (60% < a6 ≤ 70%) | B (80%< substrate protein remaining %≤ 100%) | A (0% ≤ substrate protein remaining % ≤ 80%) | A (0% ≤ substrate protein remaining % ≤ 80%) | B (80%< substrate protein remaining %≤ 100%) | B (80%< substrate protein remaining %≤ 100%) | B (80%< substrate protein remaining %≤ 100%)
2 | O=C1CCC(N2Cc3c(C(=O)N4CCC(N5CCN(C(c6ccccc6)c6ccccc6)CC5)C(F)(F)C4)cccc3C2=O)C(=O)N1 (centres unmarked) | a2 (20% < a2 ≤ 30%) | a6 (60% < a6 ≤ 70%) | B (80%< substrate protein remaining %≤ 100%) | A (0% ≤ substrate protein remaining % ≤ 80%) | A (0% ≤ substrate protein remaining % ≤ 80%) | A (0% ≤ substrate protein remaining % ≤ 80%) | A (0% ≤ substrate protein remaining % ≤ 80%) | A (0% ≤ substrate protein remaining % ≤ 80%)
3 | O=C1CCC(N2Cc3cc(C(=O)N4CCC(N5CC=C(c6cccc(Cl)c6Cl)CC5)C(F)(F)C4)cc(F)c3C2=O)C(=O)N1 (centres unmarked) | a4 (40% < a4 ≤ 53%) | a7 (70% < a7 ≤80%) | A (0% ≤ substrate protein remaining % ≤ 80%) | A (0% ≤ substrate protein remaining % ≤ 80%) | A (0% ≤ substrate protein remaining % ≤ 80%) | A (0% ≤ substrate protein remaining % ≤ 80%) | A (0% ≤ substrate protein remaining % ≤ 80%) | A (0% ≤ substrate protein remaining % ≤ 80%)
4 | O=C1CCC(N2Cc3ccc(C(=O)N4CCC(N5CC=C(c6cccc(Cl)c6Cl)CC5)C(F)(F)C4)cc3C2=O)C(=O)N1 (centres unmarked) | a3 (30% < a3 ≤ 40%) | a7 (70% < a7 ≤80%) | A (0% ≤ substrate protein remaining % ≤ 80%) | A (0% ≤ substrate protein remaining % ≤ 80%) | A (0% ≤ substrate protein remaining % ≤ 80%) | A (0% ≤ substrate protein remaining % ≤ 80%) | A (0% ≤ substrate protein remaining % ≤ 80%) | A (0% ≤ substrate protein remaining % ≤ 80%)
5 | O=C1CCC(N2Cc3c(CN4CCC(N5CCN(C(c6ccccc6)c6ccccn6)CC5)C(F)(F)C4)cccc3C2=O)C(=O)N1 (centres unmarked) | a6 (60% < a6 ≤ 70%) | a8 (80% < a8 ≤100%) | B (80%< substrate protein remaining %≤ 100%) | A (0% ≤ substrate protein remaining % ≤ 80%) | B (80%< substrate protein remaining %≤ 100%) | B (80%< substrate protein remaining %≤ 100%) | B (80%< substrate protein remaining %≤ 100%) | A (0% ≤ substrate protein remaining % ≤ 80%)
6 | O=C1CCC(N2Cc3cc(CN4CCC(N5CCN(c6noc7cc(F)ccc67)CC5)C(F)(F)C4)ccc3C2=S)C(=O)N1 (centres unmarked) | a5 (53% < a5 ≤ 60%) | a8 (80% < a8 ≤100%) | B (80%< substrate protein remaining %≤ 100%) | B (80%< substrate protein remaining %≤ 100%) | A (0% ≤ substrate protein remaining % ≤ 80%) | B (80%< substrate protein remaining %≤ 100%) | A (0% ≤ substrate protein remaining % ≤ 80%) | B (80%< substrate protein remaining %≤ 100%)
7 | O=C1CCC(N2Cc3ccc(CN4CCC(N5CCN(C(c6ccccc6)c6ccccn6)CC5)C(F)(F)C4)cc3C2=O)C(=O)N1 (centres unmarked) | a3 (30% < a3 ≤ 40%) | a7 (70% < a7 ≤80%) | B (80%< substrate protein remaining %≤ 100%) | A (0% ≤ substrate protein remaining % ≤ 80%) | B (80%< substrate protein remaining %≤ 100%) | B (80%< substrate protein remaining %≤ 100%) | B (80%< substrate protein remaining %≤ 100%) | A (0% ≤ substrate protein remaining % ≤ 80%)

Continued, in another order:

Row | Inhibition Rate at 0.5 µM (%) [7] | Inhibition Rate at 2 µM (%) [7] | Structure (SMILES) | substrate protein remaining % (IKZF2) [1] | substrate protein remaining % (GSPT1) [2] | substrate protein remaining % (IKZF3) [3] | substrate protein remaining % (IKZF 1) [4] | substrate protein remaining % (WEE1) [5] | substrate protein remaining % (CK1a) [6]
8 | a3 (30% < a3 ≤ 40%) | a5 (53% < a5 ≤ 60%) | O=C1CCC(N2Cc3cccc(CN4CCC(N5CCN(c6cccc(Cl)c6Cl)CC5)CC4)c3C2=O)C(=O)N1 (centres unmarked) | B (80%< substrate protein remaining %≤ 100%) | A (0% ≤ substrate protein remaining % ≤ 80%) | B (80%< substrate protein remaining %≤ 100%) | B (80%< substrate protein remaining %≤ 100%) | A (0% ≤ substrate protein remaining % ≤ 80%) | B (80%< substrate protein remaining %≤ 100%)
9 | a6 (60% < a6 ≤ 70%) | a8 (80% < a8 ≤100%) | CC1(C)CCC(C(=O)N2CCN(C3CCN(CCCc4ccc5c(c4)CN(C4CCC(=O)NC4=O)C5=O)CC3(F)F)CC2)=C(c2ccc(Cl)cc2)C1 (centres unmarked) | A (0% ≤ substrate protein remaining % ≤ 80%) | A (0% ≤ substrate protein remaining % ≤ 80%) | A (0% ≤ substrate protein remaining % ≤ 80%) | B (80%< substrate protein remaining %≤ 100%) | B (80%< substrate protein remaining %≤ 100%) | A (0% ≤ substrate protein remaining % ≤ 80%)
10 | a8 (80% < a8 ≤100%) | a8 (80% < a8 ≤100%) | O=C1CCC(N2Cc3cc(CCN4CCC(N5CCC(c6noc7cc(F)ccc67)CC5)C(F)(F)C4)ccc3C2=O)C(=O)N1 (centres unmarked) | A (0% ≤ substrate protein remaining % ≤ 80%) | A (0% ≤ substrate protein remaining % ≤ 80%) | A (0% ≤ substrate protein remaining % ≤ 80%) | B (80%< substrate protein remaining %≤ 100%) | A (0% ≤ substrate protein remaining % ≤ 80%) | A (0% ≤ substrate protein remaining % ≤ 80%)
11 | a3 (30% < a3 ≤ 40%) | a5 (53% < a5 ≤ 60%) | O=C1CCC(N2Cc3c(CN4CCC(N5CCN(c6noc7cc(F)ccc67)CC5)CC4)cccc3C2=S)C(=O)N1 (centres unmarked) | B (80%< substrate protein remaining %≤ 100%) | A (0% ≤ substrate protein remaining % ≤ 80%) | B (80%< substrate protein remaining %≤ 100%) | B (80%< substrate protein remaining %≤ 100%) | B (80%< substrate protein remaining %≤ 100%) | A (0% ≤ substrate protein remaining % ≤ 80%)
12 | a2 (20% < a2 ≤ 30%) | a6 (60% < a6 ≤ 70%) | CC1(C)CCC(C(=O)N2CCN(C3CCN(Cc4ccc5c(c4)C(=O)N(C4CCC(=O)NC4=O)C5=O)CC3(F)F)CC2)=C(c2ccc(Cl)cc2)C1 (centres unmarked) | A (0% ≤ substrate protein remaining % ≤ 80%) | A (0% ≤ substrate protein remaining % ≤ 80%) | B (80%< substrate protein remaining %≤ 100%) | B (80%< substrate protein remaining %≤ 100%) | A (0% ≤ substrate protein remaining % ≤ 80%) | A (0% ≤ substrate protein remaining % ≤ 80%)
13 | a2 (20% < a2 ≤ 30%) | a5 (53% < a5 ≤ 60%) | CC1(C)CCC(C(=O)N2CCN(C3CCN(C(=O)c4cccc5c4C(=O)N(C4CCC(=O)NC4=O)C5=O)CC3(F)F)CC2)=C(c2ccc(Cl)cc2)C1 (centres unmarked) | B (80%< substrate protein remaining %≤ 100%) | A (0% ≤ substrate protein remaining % ≤ 80%) | B (80%< substrate protein remaining %≤ 100%) | B (80%< substrate protein remaining %≤ 100%) | B (80%< substrate protein remaining %≤ 100%) | B (80%< substrate protein remaining %≤ 100%)

Source: patent EP4834897A1, “COMPOUNDS WITH TWO AZAHETEROCYCLES SUBSTITUTED ISOINDOLINONE SKELETON AND USES THEREOF” (dated 2026)
